For the data set the following is noted: buffer; pH 7.4; 6.0 h; 150.0 µM.

The record followed here is PubChem BioAssay AID1645848.

Molecules are shown by their SMILES. Some results for these compounds are left out of this collection, so the calls shown say nothing about other tests.

As a reminder, the kinetic solubility is solubility judged after dilution from a stock solution rather than from solid. In turn, `O=C(C1CCC1)N1CCN(C/C=C/c2ccccc2)CC1` yielded a solubility (kinetic) of less than 1 µg/mL.
